This assay addresses epidermal growth factor receptor (EGFR) (human) (UniProt P00533). Put plainly: cell-based or functional assay.

Consider scFv-425-SNAP-IR700, for which the EC50, cell viability (XTT) after light treatment, A431 cells stood at 32 nM; the EC50, cell viability (XTT) after light treatment, IGR-1 cells stood at 45 nM; the EC50, cell viability (XTT) after light treatment, IGR-39 cells was 55 nM.
